Data as given in patent publication US9694016B2 (Novartis AG, priority 2013, dated 2017).

By UniProt entry, the sequences of proteins in these tests, tags left out.
UniProt P04049, whole entry Y340E/Y341E: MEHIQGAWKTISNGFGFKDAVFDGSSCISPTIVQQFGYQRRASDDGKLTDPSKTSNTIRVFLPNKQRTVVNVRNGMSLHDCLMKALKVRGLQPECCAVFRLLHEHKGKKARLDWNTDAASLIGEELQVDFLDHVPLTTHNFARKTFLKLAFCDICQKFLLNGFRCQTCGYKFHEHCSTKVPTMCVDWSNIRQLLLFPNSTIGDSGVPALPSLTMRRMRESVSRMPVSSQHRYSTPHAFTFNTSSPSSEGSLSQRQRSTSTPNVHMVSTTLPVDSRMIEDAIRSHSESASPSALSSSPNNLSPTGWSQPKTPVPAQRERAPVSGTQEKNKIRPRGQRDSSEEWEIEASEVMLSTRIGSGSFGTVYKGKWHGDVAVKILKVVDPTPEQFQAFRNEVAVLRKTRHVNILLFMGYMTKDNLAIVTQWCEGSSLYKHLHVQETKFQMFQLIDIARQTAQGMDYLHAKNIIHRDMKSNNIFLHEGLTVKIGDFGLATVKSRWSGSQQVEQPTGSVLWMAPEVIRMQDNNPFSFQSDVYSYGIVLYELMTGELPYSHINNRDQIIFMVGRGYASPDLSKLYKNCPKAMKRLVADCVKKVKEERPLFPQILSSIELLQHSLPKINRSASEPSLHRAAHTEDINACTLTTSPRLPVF

target: C-Raf FL (full-length C-Raf protein, Y340E and Y341E activating mutations) (Homo sapiens (Human), UniProt P04049, Y340E/Y341E); format: biochemical; conditions: AlphaScreen, 60 min pre-incubation, 1 hour reaction; read-out: c-Raf FL IC-50

| Structure (SMILES) | IC50 |
| --- | --- |
| CCNc1nc(-c2cc(C(=O)Nc3cccc(C(C)(C)C#N)c3)ccc2C)cc(N2CCOCC2)n1 [Example 732, N-(3-(2-cyanopropan-2-yl)phenyl)-3-(2-(ethylamino)-6-morpholinopyrimidin-4-yl)-4-methylbenzamide] | 0.6 nM |
| CCNc1nc(-c2cc(C(=O)Nc3cccc(C(F)F)c3)ccc2C)cc(N2CCOCC2)n1 [Example 733, N-(3-(difluoromethyl)phenyl)-3-(2-(ethylamino)-6-morpholinopyrimidin-4-yl)-4-methylbenzamide] | 0.3 nM |
| Cc1ccc(NC(=O)c2ccnc(C(C)(C)C#N)c2)cc1-c1cc(N2CCOCC2)nc(NCCO)n1 [Example 734, 2-(2-cyanopropan-2-yl)-N-(3-(2-((2-hydroxyethyl)amino)-6-morpholinopyrimidin-4-yl)-4-methylphenyl)isonicotinamide] | 1.8 nM |
| Cc1ccc(NC(=O)c2cnnc(C(C)(C)C#N)c2)cc1-c1cc(N2CCOCC2)nc(NCCO)n1 [Example 737, 6-(2-cyanopropan-2-yl)-N-(3-(2-((2-hydroxyethyl)amino)-6-morpholinopyrimidin-4-yl)-4-methylphenyl)pyridazine-4-carboxamide] | 5.4 nM |
| Cc1ccc(NC(=O)c2ccnc(C(C)(C)C#N)c2)cc1-c1cc(N2CCOCC2)nc(NC[C@H](C)O)n1 [Example 739, (S)-2-(2-cyanopropan-2-yl)-N-(3-(2-((2-hydroxypropyl)amino)-6-morpholinopyrimidin-4-yl)-4-methylphenyl)isonicotinamide] | 1.4 nM |
| Cc1ccc(NC(=O)c2ccnc(C(C)(C)C#N)c2)cc1-c1cc(N2CCOCC2)nc(NC[C@@H](C)O)n1 [Example 741, (R)-2-(2-cyanopropan-2-yl)-N-(3-(2-((2-hydroxypropyl)amino)-6-morpholinopyrimidin-4-yl)-4-methylphenyl)isonicotinamide] | 1.2 nM |
| Cc1ncc(NC(=O)c2cccc(C(F)(F)F)c2)cc1-c1cc(N2CCOCC2)nc(N[C@@H](C)CO)n1 [Example 745, (S)—N-(5-(2-((1-hydroxypropan-2-yl)amino)-6-morpholinopyrimidin-4-yl)-6-methylpyridin-3-yl)-3-(trifluoromethyl)benzamide] | 0.7 nM |
| Cc1ccc(NC(=O)c2ccnc(C(C)(C)C#N)c2)cc1-c1cc(N2CCOCC2)nc(N[C@@H](C)CO)n1 [Example 746] | 1.2 nM |
| Cc1ncc(NC(=O)c2cccc(C(F)(F)F)c2)cc1-c1cc(N2CCOCC2)nc(N[C@H](C)CO)n1 [Example 748, (R)—N-(5-(2-((1-hydroxypropan-2-yl)amino)-6-morpholinopyrimidin-4-yl)-6-methylpyridin-3-yl)-3-(trifluoromethyl)benzamide] | 0.4 nM |
| Cc1ccc(NC(=O)c2ccnc(C(C)(C)C#N)c2)cc1-c1cc(N2CCOCC2)nc(N[C@H](C)CO)n1 [Example 749, (R)-2-(2-cyanopropan-2-yl)-N-(3-(2-((1-hydroxypropan-2-yl)amino)-6-morpholinopyrimidin-4-yl)-4-methylphenyl)isonicotinamide] | 0.5 nM |
| Cc1ccc(NC(=O)c2ccnc(C(C)(C)C#N)c2)cc1-c1cc(N2CCOCC2)nc(NC(C)(C)CO)n1 [Example 751, 2-(2-cyanopropan-2-yl)-N-(3-(2-((1-hydroxy-2-methylpropan-2-yl)amino)-6-morpholinopyrimidin-4-yl)-4-methylphenyl)isonicotinamide] | 0.4 nM |
| Cc1ccc(NC(=O)c2ccnc(C(C)(C)C#N)c2)cc1-c1cc(N2CCOCC2)nc(NC2(CO)CCOCC2)n1 [Example 754, 2-(2-cyanopropan-2-yl)-N-(3-(2-((4-(hydroxymethyl)tetrahydro-2H-pyran-4-yl)amino)-6-morpholinopyrimidin-4-yl)-4-methylphenyl)isonicotinamide] | 1 nM |
| Cc1ccc(NC(=O)c2ccnc(C(C)(C)C#N)c2)cc1-c1cc(N2CCOCC2)nc(N(C)C)n1 [Example 755, 2-(2-cyanopropan-2-yl)-N-(3-(2-(dimethylamino)-6-morpholinopyrimidin-4-yl)-4-methylphenyl)isonicotinamide] | 7.2 nM |
| Cc1ccc(NC(=O)c2ccnc(C(C)(F)F)c2)cc1-c1cc(N2CCOCC2)nc(N(C)C)n1 [Example 756, 2-(1,1-difluoroethyl)-N-(3-(2-(dimethylamino)-6-morpholinopyrimidin-4-yl)-4-methylphenyl)isonicotinamide] | 1.5 nM |
| Cc1ccc(NC(=O)c2ccnc(C(F)(F)F)c2)cc1-c1cc(N2CCOCC2)nc(N(C)C)n1 [Example 758, N-(3-(2-(dimethylamino)-6-morpholinopyrimidin-4-yl)-4-methylphenyl)-2-(trifluoromethyl)isonicotinamide] | 1.2 nM |
| Cc1ccc(NC(=O)c2ccnc(S(C)(=O)=O)c2)cc1-c1cc(N2CCOCC2)nc(N(C)C)n1 [Example 759, N-(3-(2-(dimethylamino)-6-morpholinopyrimidin-4-yl)-4-methylphenyl)-2-(methylsulfonyl)isonicotinamide] | 4.7 nM |

Other lines, results leading:

| IC50 | Structure (SMILES) |
| --- | --- |
| 4.8 nM | CCNc1nc(-c2cc(NC(=O)c3ccnc(C(C)(C)C)c3)cnc2C)cc(N2CCOCC2)n1 [Example 724, 2-(tert-butyl)-N-(5-(2-(ethylamino)-6-morpholinopyrimidin-4-yl)-6-methylpyridin-3-yl)isonicotinamide] |
| 2.2 nM | CCNc1nc(-c2cc(NC(=O)c3cccc(C(C)(C)C#N)c3)cnc2C)cc(N2CCOCC2)n1 [Example 726, 3-(2-cyanopropan-2-yl)-N-(5-(2-(ethylamino)-6-morpholinopyrimidin-4-yl)-6-methylpyridin-3-yl)benzamide] |
| 2.7 nM | CCNc1nc(-c2cc(NC(=O)c3cnnc(C4CC4)c3)cnc2C)cc(N2CCOCC2)n1 [Example 727, 6-cyclopropyl-N-(5-(2-(ethylamino)-6-morpholinopyrimidin-4-yl)-6-methylpyridin-3-yl)pyridazine-4-carboxamide] |
| 0.8 nM | CCNc1nc(-c2cc(NC(=O)c3ccnc(C4(C#N)CC4)c3)cnc2C)cc(N2CCOCC2)n1 [Example 728, 2-(1-cyanocyclopropyl)-N-(5-(2-(ethylamino)-6-morpholinopyrimidin-4-yl)-6-methylpyridin-3-yl)isonicotinamide] |
| 2.9 nM | CCNc1nc(-c2cc(NC(=O)c3ccnc(C4COC4)c3)cnc2C)cc(N2CCOCC2)n1 [Example 729, N-(5-(2-(ethylamino)-6-morpholinopyrimidin-4-yl)-6-methylpyridin-3-yl)-2-(oxetan-3-yl)isonicotinamide] |
| 7.5 nM | CCNc1nc(-c2cc(NC(=O)c3cnnc(C(C)(C)C#N)c3)cnc2C)cc(N2CCOCC2)n1 [Example 730, 6-(2-cyanopropan-2-yl)-N-(5-(2-(ethylamino)-6-morpholinopyrimidin-4-yl)-6-methylpyridin-3-yl)pyridazine-4-carboxamide] |
| 0.5 nM | Cc1ncc(NC(=O)c2cccc(C(F)(F)F)c2)cc1-c1cc(N2CCOCC2)nc(NCCO)n1 [Example 735, N-(5-(2-((2-hydroxyethyl)amino)-6-morpholinopyrimidin-4-yl)-6-methylpyridin-3-yl)-3-(trifluoromethyl)benzamide] |
| 7.3 nM | Cc1ncc(NC(=O)c2ccnc(C(C)(C)C#N)c2)cc1-c1cc(N2CCOCC2)nc(NCCO)n1 [Example 736, 2-(2-cyanopropan-2-yl)-N-(5-(2-((2-hydroxyethyl)amino)-6-morpholinopyrimidin-4-yl)-6-methylpyridin-3-yl)isonicotinamide] |
| 10.7 nM | Cc1ncc(NC(=O)c2ccnc(C(C)(C)C#N)c2)cc1-c1cc(N2CCOCC2)nc(NC[C@H](C)O)n1 [Example 738, (S)-2-(2-cyanopropan-2-yl)-N-(5-(2-((2-hydroxypropyl)amino)-6-morpholinopyrimidin-4-yl)-6-methylpyridin-3-yl)isonicotinamide] |
| 0.3 nM | Cc1ncc(NC(=O)c2cccc(C(F)(F)F)c2)cc1-c1cc(N2CCOCC2)nc(NC[C@H](C)O)n1 [Example 740, (S)—N-(5-(2-((2-hydroxypropyl)amino)-6-morpholinopyrimidin-4-yl)-6-methylpyridin-3-yl)-3-(trifluoromethyl)benzamide] |
| 4.6 nM | Cc1ncc(NC(=O)c2ccnc(C(C)(C)C#N)c2)cc1-c1cc(N2CCOCC2)nc(NC[C@@H](C)O)n1 [Example 742, (R)-2-(2-cyanopropan-2-yl)-N-(5-(2-((2-hydroxypropyl)amino)-6-morpholinopyrimidin-4-yl)-6-methylpyridin-3-yl)isonicotinamide] |
| 6.2 nM | Cc1ncc(NC(=O)c2ccnc(C(C)(C)C#N)c2)cc1-c1cc(N2CCOCC2)nc(N[C@@H](C)CO)n1 [Example 744, (S)-2-(2-cyanopropan-2-yl)-N-(5-(2-((1-hydroxypropan-2-yl)amino)-6-morpholinopyrimidin-4-yl)-6-methylpyridin-3-yl)isonicotinamide] |
| 3 nM | Cc1ncc(NC(=O)c2ccnc(C(C)(C)C#N)c2)cc1-c1cc(N2CCOCC2)nc(N[C@H](C)CO)n1 [Example 747, (R)-2-(2-cyanopropan-2-yl)-N-(5-(2-((1-hydroxypropan-2-yl)amino)-6-morpholinopyrimidin-4-yl)-6-methylpyridin-3-yl)isonicotinamide] |
| 3.8 nM | Cc1ncc(NC(=O)c2ccnc(C(C)(C)C#N)c2)cc1-c1cc(N2CCOCC2)nc(NC(C)(C)CO)n1 [Example 750, 2-(2-cyanopropan-2-yl)-N-(5-(2-((1-hydroxy-2-methylpropan-2-yl)amino)-6-morpholinopyrimidin-4-yl)-6-methylpyridin-3-yl)isonicotinamide] |
| 0.4 nM | Cc1ncc(NC(=O)c2cccc(C(F)(F)F)c2)cc1-c1cc(N2CCOCC2)nc(NC(C)(C)CO)n1 [Example 752, N-(5-(2-((1-hydroxy-2-methylpropan-2-yl)amino)-6-morpholinopyrimidin-4-yl)-6-methylpyridin-3-yl)-3-(trifluoromethyl)benzamide] |
| 6.7 nM | Cc1ncc(NC(=O)c2ccnc(C(C)(C)C#N)c2)cc1-c1cc(N2CCOCC2)nc(NC2(CO)CCOCC2)n1 [Example 753, 2-(2-cyanopropan-2-yl)-N-(5-(2-((4-(hydroxymethyl)tetrahydro-2H-pyran-4-yl)amino)-6-morpholinopyrimidin-4-yl)-6-methylpyridin-3-yl)isonicotinamide] |
